# The Kinase Knowledgebase extract (Sharma et al. 2016)
# By UniProt entry, the sequences of proteins in these tests, tags left out.
# UniProt P42336, whole entry, looked up: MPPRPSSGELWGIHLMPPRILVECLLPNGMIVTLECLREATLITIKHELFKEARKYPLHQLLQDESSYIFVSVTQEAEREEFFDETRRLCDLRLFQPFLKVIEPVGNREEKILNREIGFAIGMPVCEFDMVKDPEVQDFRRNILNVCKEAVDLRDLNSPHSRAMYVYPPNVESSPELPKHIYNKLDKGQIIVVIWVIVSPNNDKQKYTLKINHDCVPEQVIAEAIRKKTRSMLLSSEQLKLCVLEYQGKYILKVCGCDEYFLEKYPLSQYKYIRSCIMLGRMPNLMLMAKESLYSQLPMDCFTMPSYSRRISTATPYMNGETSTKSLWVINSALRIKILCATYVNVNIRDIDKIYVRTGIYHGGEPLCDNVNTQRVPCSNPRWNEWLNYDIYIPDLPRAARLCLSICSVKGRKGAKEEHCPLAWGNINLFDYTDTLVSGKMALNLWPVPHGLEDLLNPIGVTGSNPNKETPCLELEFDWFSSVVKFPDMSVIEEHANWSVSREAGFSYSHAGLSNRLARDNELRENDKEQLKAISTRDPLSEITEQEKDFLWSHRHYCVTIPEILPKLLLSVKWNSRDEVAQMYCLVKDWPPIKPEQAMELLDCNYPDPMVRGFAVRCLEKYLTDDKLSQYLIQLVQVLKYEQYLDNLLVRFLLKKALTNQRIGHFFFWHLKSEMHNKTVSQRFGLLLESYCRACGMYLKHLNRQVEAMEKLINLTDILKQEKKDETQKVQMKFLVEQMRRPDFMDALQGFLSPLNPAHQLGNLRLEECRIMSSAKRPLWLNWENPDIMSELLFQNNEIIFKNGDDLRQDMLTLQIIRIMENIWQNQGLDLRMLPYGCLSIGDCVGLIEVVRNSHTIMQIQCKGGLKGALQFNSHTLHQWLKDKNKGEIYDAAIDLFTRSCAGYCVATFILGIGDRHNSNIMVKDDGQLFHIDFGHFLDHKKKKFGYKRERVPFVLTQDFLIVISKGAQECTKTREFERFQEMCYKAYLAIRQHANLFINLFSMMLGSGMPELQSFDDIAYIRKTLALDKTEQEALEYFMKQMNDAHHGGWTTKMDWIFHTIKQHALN
# Biological target: PIK3CA (human) (UniProt P42336)
# Experiment: Enzyme Assay
smiles,measurement,value
Nc1ncc(-c2nc(N3CCOCC3)c3c(n2)N2CCOCC2CO3)cn1 (stereo unspecified),IC50,5.72 nM
